According to doi:10.1101/810531 (bioRxiv, 2019):

Target: SNARE domain of syntaxin 1a (aa 180-262) (Rattus norvegicus, UniProt P32851, in part)
Experiment: native gel or EMSA

B1: second helix of SNAP-25 (aa 120-206) (domain or fragment)
chain: VVDEREQMAISGGFIRRVTNDARENEMDENLEQVSGIIGNLRHMALDMGNEIDTQNRQIDRIMEKADSNKTRIDEANQRATKMLGSG
binding result: binds
